Experimental data from US3994901A, “5-[1-Hydroxy-2-(s ubstituted-amino)]alkyl-8-hydroxy-3,4-dihydrocarbostyril derivatives” (Otsuka Pharmaceutical Company Limited, priority 1974, dated 1976).

How the values were obtained:
male rats (dd strain) = details: p.o., *Literature values; cited from earlier work
in vivo = details: rat, male rats (dd strain), fasted 12 hours

CC(C)NCC(O)c1ccc(O)c(O)c1 (stereo not drawn) [Isoproterenol]
LD50 (50% lethal dose) (male rats (dd strain)): 2587 mg/kg | LD50 (in vivo; iv, I.v.): 112 mg/kg | LD50 (in vivo; po): 355 mg/kg
